According to patent US12172946B2, “Compound containing diphenylmethane structure and use thereof” (GUANGZHOU TROJAN PHARMATEC LTD., priority 2019, dated 2024):

Test: solubility of the compound in common solvents
Assay type: physicochemical
Conditions: 25-30° C.
Description: The solubility of the compound of the present invention in common solvents was investigated (25-30° C.), and the results are shown in Table 1. It can be seen from Table 1 that the compound of the present invention has good solubility in all of heptane, isopropyl acetate (i-PrOAc), methyl tert-butyl ether (MTBE) and N,N-dimethylformamide (DMF), and particularly, the solubility in N,N-dimethylformamide is much higher than Comparative Examples.

solubility in DMSO (DMSO): <1% | solubility in MeOH (MeOH): <1% | solubility in DMF (N,N-dimethylformamide): >100% | solubility in Heptane (heptane): >100% | solubility in i-PrOAc (isopropyl acetate): >100% | solubility in MTBE (methyl tert-butyl ether): >100%
Substance: (2-(2-(3,4,5-tri(isomeric tridecyloxy)-benzamido)-ethoxy)-ethoxy)-4-methoxy-benzylamine [DPA-025]
